Test results as given in US8138174B2, “Compounds with a combination of cannabinoid CB1 antagonism and serotonin reuptake inhibition” (Solvay Pharmaceuticals B.V., priority 2007, dated 2012).

Sequences of proteins named here, by UniProt entry; tags and fusion partners are left off.
UniProt P31652, whole entry: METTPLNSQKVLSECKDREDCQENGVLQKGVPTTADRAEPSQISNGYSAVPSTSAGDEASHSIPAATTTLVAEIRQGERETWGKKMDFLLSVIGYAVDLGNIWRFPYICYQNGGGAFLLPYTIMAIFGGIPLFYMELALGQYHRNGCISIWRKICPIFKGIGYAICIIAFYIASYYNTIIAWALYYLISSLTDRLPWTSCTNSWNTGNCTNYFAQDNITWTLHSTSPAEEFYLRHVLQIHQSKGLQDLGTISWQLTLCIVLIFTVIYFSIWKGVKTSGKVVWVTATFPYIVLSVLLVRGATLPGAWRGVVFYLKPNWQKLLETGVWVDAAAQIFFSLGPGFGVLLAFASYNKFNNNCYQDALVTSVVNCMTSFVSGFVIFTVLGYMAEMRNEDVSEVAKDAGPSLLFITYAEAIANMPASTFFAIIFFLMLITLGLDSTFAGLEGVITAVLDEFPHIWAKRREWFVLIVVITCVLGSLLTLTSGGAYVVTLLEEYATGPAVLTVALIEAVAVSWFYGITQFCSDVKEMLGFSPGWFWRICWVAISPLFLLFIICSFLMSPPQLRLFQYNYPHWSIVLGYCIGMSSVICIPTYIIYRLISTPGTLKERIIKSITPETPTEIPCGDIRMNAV

Molecular target: T1, serotonin reuptake sites (Rattus norvegicus, UniProt P31652)
T1 construct: from tissue
Experiment: In vitro affinity for serotonin reuptake sites ([3H]-paroxetine binding, Habert 1985)

| SMILES | Ki [nM] |
| --- | --- |
| CNCCC=C1c2ccccc2CCc2ccccc21 | 12.6 |
| Fc1ccc([C@@H]2CCNC[C@H]2COc2ccc3c(c2)OCO3)cc1 | 0.2 |
